Patent US5010095A, “N-(W-substituted alkyl)-'-(imidazol-4-yl)alkyl)guanidine” (Cedona Pharmaceuticals B.V., priority 1986, dated 1991)

Protein sequences, listed by entry. Tags and fused reporters are not part of them.
UniProt P31389, whole entry: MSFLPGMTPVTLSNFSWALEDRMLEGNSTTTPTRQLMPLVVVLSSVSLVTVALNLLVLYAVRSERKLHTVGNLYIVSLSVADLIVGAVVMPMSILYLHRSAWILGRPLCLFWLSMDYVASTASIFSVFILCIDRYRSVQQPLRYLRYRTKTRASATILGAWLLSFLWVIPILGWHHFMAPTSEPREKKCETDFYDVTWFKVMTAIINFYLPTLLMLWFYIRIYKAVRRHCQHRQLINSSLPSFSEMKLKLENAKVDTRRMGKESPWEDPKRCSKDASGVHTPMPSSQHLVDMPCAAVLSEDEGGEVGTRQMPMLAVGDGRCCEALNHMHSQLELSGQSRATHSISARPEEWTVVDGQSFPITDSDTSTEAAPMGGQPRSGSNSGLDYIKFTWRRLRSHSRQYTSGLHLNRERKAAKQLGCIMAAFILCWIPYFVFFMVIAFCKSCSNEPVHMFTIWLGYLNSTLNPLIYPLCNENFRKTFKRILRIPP

Target: T1, histamine H1 (guinea-pig trachea) (Cavia porcellus, UniProt P31389)
T1 construct: Single segments were cut from the trachea; from tissue; host or cells: guinea-pig trachea (isolated segments)
Assay: Histamine H1-activity, guinea-pig trachea
Conditions: up to 10^-4 M
Description: The values for the H1 -activity given are the mean of at least two experiments in quadruplicate, while the values for the H2 -activity result from at least two experiments in duplicate.
Male guinea-pigs (350-500 g) were killed by a blow on the head and the trachea removed. Single segments were cut from the trachea, loaded with 0.4 g and placed in an organ bath (35° C.) containing 120 mM NaCl, 6 mM KCl, 1 mM MgSO4, 2.5 mM CaCl2, 1 mM NaH2 PO4, […] and 6 mM glucose. The organ bath was gassed with oxygen containing 5% CO2. PD2, intrinsic acitivity and antagonistic activity of the test compounds were determined from isotonically recorded, cumulative dose-response curves.

CN/C(=N/CCSCc1nc[nH]c1C)NC#N [cimetidine, reference compound]
effect on resting state and histamine induced contractions of the trachea: neither effect on the resting state of the organ nor on the histamine induced contractions
